Experimental data: ChEMBL document CHEMBL1141687, “Design, syntheses, and structure-activity relationships of novel NPY Y5 receptor antagonists: 2-{3-Oxospiro[isobenzofuran-1(3H),4'-piperidin]-1'-yl}benzimidazole derivatives” (Bioorg Med Chem Lett, 2008)

Experiments:
[1] = Selectivity ratio of IC50 for NPY Y2 receptor to IC50 for human NPY Y5 receptor
[2] = Selectivity ratio of IC50 for NPY Y4 receptor to IC50 for human NPY Y5 receptor
[3] = Selectivity ratio of IC50 for NPY Y1 receptor to IC50 for human NPY Y5 receptor

Ratio IC50 [1] | Ratio IC50 [2] | Ratio IC50 [3] | SMILES
> 1000 | > 1000 | > 1000 | COC(=O)c1ccc2[nH]c(N3CCC4(CC3)OC(=O)c3ccccc34)nc2c1
> 1000 | > 1000 | > 1000 | O=C1OC2(CCN(c3nc4cc(Cl)ccc4[nH]3)CC2)c2ccccc21
> 1000 | > 1000 | > 1000 | O=C1OC2(CCN(c3nc4cc(-c5ccccc5)ccc4[nH]3)CC2)c2ccccc21
> 1000 | > 1000 | > 1000 | O=C1OC2(CCN(c3nc4cc(Cl)c(Cl)cc4[nH]3)CC2)c2ccccc21
